Data on 1 compound can be found in article PMC5050210, “BdorOBP83a-2 Mediates Responses of the Oriental Fruit Fly to Semiochemicals” (Frontiers in Physiology, 2016).

The term IC50 denotes the concentration that gives 50% inhibition.

This assay deals with T1, BdorOBP83a-1 (Bactrocera dorsalis, UniProt A0A0G2UGI4).
T1 construct: gene OBP83a-1; mature protein without signal peptide
T1 sequence (A0A0G2UGI4 32-155): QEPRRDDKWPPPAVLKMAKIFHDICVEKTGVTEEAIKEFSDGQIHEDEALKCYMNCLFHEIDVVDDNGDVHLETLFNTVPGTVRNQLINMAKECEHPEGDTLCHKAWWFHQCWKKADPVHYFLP
In words: biochemical. Set-up: Fluorescence competitive displacement of 1-NPN from recombinant OBP, 25 °C, pH 7.4; competitor 5-50 uM. Particulars: 1-NPN displacement, 2 uM protein, 2 uM 1-NPN, extrapolated. The procedure: Fluorescence spectra were measured on an F-7000 FL Fluorescence Spectrophotometer (Hitachi) in a 10 mm light path quartz cuvette at 25°C. All were excited at 337 nm with emission and excitation slit of both 10 nm. The emission spectra were recorded between 350 and 500 nm. […] All measurements were performed in triplicates and mean values and standard errors are calculated. […] To determine the roles of specific OBPs in recognition of attractants in B. dorsalis, recombinant proteins of selected antenna-abundant OBPs and CSPs were obtained using a prokaryotic expression system (Figure 5). Purified OBPs and CSPs were used to determine binding affinity of each protein via fluorescence competitive binding assays. Thirteen pure attractant compounds were tested against each recombinant protein. […] Except for BdorCSP3 and BdorOBP84a-2, all remaining OBPs could bind to the tested compounds (Figure 6; Table S8). […] Alternatively they might be involved in functions other than odor detection. […] Overall, we observed lower binding affinity with our recombinant proteins and tested attractants. […] In other studies, much higher affinity has been reported. […] The biological significance of the observed lower affinity with B. doralis OBPs here remains to be determined. […]

Bounds are passed on as bounds.

Turning to `CCCCCCCC1CCC(=O)O1` (stereo not shown) [γ-undecalactone], the IC50 was greater than 50 µM.
